Target: GST-tagged PIK3Cδ in complex with PIK3R1 (Homo sapiens (Human), UniProt O00329)
Experiment: biochemical

Sequences of proteins named here, by UniProt entry; tags and fusion partners are left off. A change or cut given only in a name is not applied to a line headed by its entry.
UniProt O00329: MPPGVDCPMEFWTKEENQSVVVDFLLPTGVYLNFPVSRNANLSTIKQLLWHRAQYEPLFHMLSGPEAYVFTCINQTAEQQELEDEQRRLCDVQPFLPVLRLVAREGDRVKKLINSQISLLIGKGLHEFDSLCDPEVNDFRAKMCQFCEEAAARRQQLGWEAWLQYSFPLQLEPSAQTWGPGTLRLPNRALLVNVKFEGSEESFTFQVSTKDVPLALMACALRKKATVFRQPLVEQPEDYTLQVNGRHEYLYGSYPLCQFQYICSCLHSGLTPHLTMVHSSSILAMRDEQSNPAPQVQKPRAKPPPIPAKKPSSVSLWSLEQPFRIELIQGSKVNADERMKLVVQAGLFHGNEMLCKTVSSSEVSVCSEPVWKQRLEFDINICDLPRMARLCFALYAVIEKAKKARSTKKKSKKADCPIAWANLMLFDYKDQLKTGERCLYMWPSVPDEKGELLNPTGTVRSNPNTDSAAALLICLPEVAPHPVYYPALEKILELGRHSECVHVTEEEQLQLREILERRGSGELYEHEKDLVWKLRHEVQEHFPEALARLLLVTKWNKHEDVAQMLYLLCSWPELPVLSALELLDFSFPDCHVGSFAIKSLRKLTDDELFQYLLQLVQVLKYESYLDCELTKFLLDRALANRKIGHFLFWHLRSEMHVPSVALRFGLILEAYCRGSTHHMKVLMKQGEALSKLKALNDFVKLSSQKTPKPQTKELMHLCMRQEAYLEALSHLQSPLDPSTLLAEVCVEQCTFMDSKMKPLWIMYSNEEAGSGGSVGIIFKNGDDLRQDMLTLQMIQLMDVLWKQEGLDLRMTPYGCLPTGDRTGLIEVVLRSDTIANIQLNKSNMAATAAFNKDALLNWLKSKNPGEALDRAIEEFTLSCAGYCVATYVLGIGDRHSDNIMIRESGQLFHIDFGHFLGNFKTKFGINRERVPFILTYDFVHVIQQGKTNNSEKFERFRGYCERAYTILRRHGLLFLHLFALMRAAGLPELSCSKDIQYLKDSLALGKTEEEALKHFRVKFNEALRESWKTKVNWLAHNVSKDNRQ

| SMILES | IC50 [µM] |
| --- | --- |
| CC(C(=O)N1C[C@H](F)[C@H](NC(=O)c2cc(-c3cc(CN4CCC(C(F)(F)F)CC4)c4c(N)ncnn34)ccc2Cl)C1)C(F)(F)F (stereo partly drawn) [Example 1162, 5-(4-amino-5-{[4-(trifluoromethyl)piperidin-1-yl]methyl}pyrrolo[2,1-f][1,2,4]triazin-7-yl)-2-chloro-N-[(3R,4S)-4-fluoro-1-(3,3,3-trifluoro-2-methylpropanoyl)pyrrolidin-3-yl]benzamide] | > 15 |
| CCC(O)(C(=O)N1C[C@H](F)[C@H](NC(=O)c2cc(-c3cc(CN4CCC(C(F)(F)F)CC4)c4c(N)ncnn34)ccc2Cl)C1)C(F)(F)F (stereo partly drawn) [Example 1163, 5-(4-amino-5-{[4-(trifluoromethyl)piperidin-1-yl]methyl}pyrrolo[2,1-f][1,2,4]triazin-7-yl)-2-chloro-N-[(3R,4S)-4-fluoro-1-[2-hydroxy-2-(trifluoromethyl)butanoyl]pyrrolidin-3-yl]benzamide] | > 15 |
| Nc1ncnn2c(-c3cccc(C(=O)N[C@@H]4CN(C(=O)C5CC(F)C5)C[C@@H]4F)c3)cc(CN3CC(F)(F)C3)c12 (stereo partly drawn) [Example 1174, 3-{4-amino-5-[(3,3-difluoroazetidin-1-yl)methyl]pyrrolo[2,1-f][1,2,4]triazin-7-yl}-N-[(3R,4S)-4-fluoro-1-(3-fluorocyclobutanecarbonyl)pyrrolidin-3-yl]benzamide] | 0.928 |
| Nc1ncnn2c(-c3cccc(C(=O)N[C@@H]4CN(C(=O)C5CC(F)C5)C[C@@H]4F)c3)cc(CN3CC(F)(F)C3)c12 (stereo partly drawn) [Example 1175, 3-{4-amino-5-[(3,3-difluoroazetidin-1-yl)methyl]pyrrolo[2,1-f][1,2,4]triazin-7-yl}-N-[(3R,4S)-4-fluoro-1-(3-fluorocyclobutanecarbonyl)pyrrolidin-3-yl]benzamide] | 0.94 |
| COc1ncc(-c2cc(C(F)(F)F)c3c(N)ncnn23)cc1C(=O)N[C@@H]1CN(C(=O)CC(O)(C(F)(F)F)C(F)(F)F)C[C@@H]1F [Example 1220, 5-[4-amino-5-(trifluoromethyl)pyrrolo[2,1-f][1,2,4]triazin-7-yl]-N-[(3R,4S)-4-fluoro-1-[4,4,4-trifluoro-3-hydroxy-3-(trifluoromethyl)butanoyl]pyrrolidin-3-yl]-2-methoxypyridine-3-carboxamide] | > 15 |
| COc1ncc(-c2cc(CN3CCC(F)(F)CC3)c3c(N)ncnn23)cc1C(=O)N[C@@H]1CN(C(=O)c2ccncc2)C[C@@H]1F [Example 1237, 5-{4-amino-5-[(4,4-difluoropiperidin-1-yl)methyl]pyrrolo[2,1-f][1,2,4]triazin-7-yl}-N-[(3R,4S)-4-fluoro-1-(pyridine-4-carbonyl)pyrrolidin-3-yl]-2-methoxypyridine-3-carboxamide] | > 15 |
| COc1ncc(-c2cc(CN3CCC(F)(F)CC3)c3c(N)ncnn23)cc1C(=O)N[C@@H]1CN(C(=O)c2ccc(Cl)cc2)C[C@@H]1F [Example 1238, 5-{4-amino-5-[(4,4-difluoropiperidin-1-yl)methyl]pyrrolo[2,1-f][1,2,4]triazin-7-yl}-N-[(3R,4S)-1-(4-chlorobenzoyl)-4-fluoropyrrolidin-3-yl]-2-methoxypyridine-3-carboxamide] | > 15 |
| COc1ncc(-c2cc(CN3CCC(F)(F)CC3)c3c(N)ncnn23)cc1C(=O)N[C@@H]1CN(C(=O)c2cccc(F)c2)C[C@@H]1F [Example 1239, 5-{4-amino-5-[(4,4-difluoropiperidin-1-yl)methyl]pyrrolo[2,1-f][1,2,4]triazin-7-yl}-N-[(3R,4S)-4-fluoro-1-(3-fluorobenzoyl)pyrrolidin-3-yl]-2-methoxypyridine-3-carboxamide] | > 15 |
| COc1ncc(-c2cc(CN3CCC(F)(F)CC3)c3c(N)ncnn23)cc1C(=O)N[C@@H]1CN(C(=O)c2ccccc2Cl)C[C@@H]1F [Example 1240, 5-{4-amino-5-[(4,4-difluoropiperidin-1-yl)methyl]pyrrolo[2,1-f][1,2,4]triazin-7-yl}-N-[(3R,4S)-1-(2-chlorobenzoyl)-4-fluoropyrrolidin-3-yl]-2-methoxypyridine-3-carboxamide] | > 15 |
